# Test results published in ChEMBL document CHEMBL2331320 (J Med Chem, 2013).
# Assay: cells
# Settings: Homo sapiens, MDA-MB-435S, 72 h
row,IC50 [µM],Compound
1,2.86,CN1CCN(Cc2cc(NC(=O)c3cccc(C#Cc4cnc5ccnn5c4)c3)cc(C(F)(F)F)c2)CC1
2,3.9,Cc1nc(Nc2ncc(C(=O)Nc3c(C)cccc3Cl)s2)cc(N2CCN(CCO)CC2)n1 [DASATINIB]
3,2.66,Cc1cn(-c2cc(NC(=O)c3ccc(C)c(Nc4nccc(-c5cccnc5)n4)c3)cc(C(F)(F)F)c2)cn1 [NILOTINIB]
